Experimental data: PubChem BioAssay (NCI)
Some of these compounds have results that are not shown, active ones among them.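 Five compound concentrations were applied to cells in 96-well plates for 48 hours; endpoints were derived by simple linear interpolation of the resulting dose-response curve. At the GI50, growth is halved.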

How the values were obtained:
Test in all cases: DTP human tumour cell line panel, 48 h; in the data active = GI50 below about 0.43 µM; inactive = the rest
SF-295 CNS = test system: SF-295 CNS
HOP-62 NSCLC = test system: HOP-62 NSCLC
SK-MEL-2 melanoma = test system: SK-MEL-2 melanoma
HCT-116 colon = test system: HCT-116 colon
NCI-H460 lung = test system: NCI-H460 lung
MDA-MB-231 breast = test system: MDA-MB-231 breast
OVCAR-3 ovarian = test system: OVCAR-3 ovarian
MOLT-4 leukemia = test system: MOLT-4 leukemia
HL-60(TB) leukemia = test system: HL-60(TB) leukemia
SF-539 CNS = test system: SF-539 CNS
CCRF-CEM leukemia = test system: CCRF-CEM leukemia
MALME-3M melanoma = test system: MALME-3M melanoma
UACC-257 melanoma = test system: UACC-257 melanoma
BT-549 breast = test system: BT-549 breast
MDA-MB-435 = test system: MDA-MB-435
UACC-62 melanoma = test system: UACC-62 melanoma
SN12C renal = test system: SN12C renal
SK-MEL-5 melanoma = test system: SK-MEL-5 melanoma
SF-268 CNS = test system: SF-268 CNS
SR leukemia = test system: SR leukemia
TK-10 renal = test system: TK-10 renal
T-47D breast = test system: T-47D breast
SK-OV-3 ovarian = test system: SK-OV-3 ovarian
IGROV1 ovarian = test system: IGROV1 ovarian
LOX IMVI melanoma = test system: LOX IMVI melanoma
CAKI-1 renal = test system: CAKI-1 renal
RXF 393 renal = test system: RXF 393 renal
786-0 renal = test system: 786-0 renal
EKVX NSCLC = test system: EKVX NSCLC
DU-145 prostate = test system: DU-145 prostate
MCF7 breast = test system: MCF7 breast
COLO 205 colon = test system: COLO 205 colon
OVCAR-4 ovarian = test system: OVCAR-4 ovarian
MDA-N = test system: MDA-N
NCI-H522 lung = test system: NCI-H522 lung
U251 CNS = test system: U251 CNS
M14 melanoma = test system: M14 melanoma
RPMI-8226 leukemia = test system: RPMI-8226 leukemia
ACHN renal = test system: ACHN renal
NCI/ADR-RES ovarian = test system: NCI/ADR-RES ovarian
K-562 leukemia = test system: K-562 leukemia
HT29 colon = test system: HT29 colon
SW-620 colon = test system: SW-620 colon
HCT-15 colon = test system: HCT-15 colon
OVCAR-5 ovarian = test system: OVCAR-5 ovarian
A549 NSCLC = test system: A549 NSCLC
NCI-H226 lung = test system: NCI-H226 lung
HS 578T breast = test system: HS 578T breast
NCI-H23 lung = test system: NCI-H23 lung
OVCAR-8 ovarian = test system: OVCAR-8 ovarian
SK-MEL-28 melanoma = test system: SK-MEL-28 melanoma
A498 renal = test system: A498 renal
SNB-75 CNS = test system: SNB-75 CNS
PC-3 prostate = test system: PC-3 prostate
KM12 colon = test system: KM12 colon
SNB-19 CNS = test system: SNB-19 CNS
NCI-H322M lung = test system: NCI-H322M lung
HOP-92 NSCLC = test system: HOP-92 NSCLC

Measured: GI50

CN1CCCC(OC(=O)C(O)(c2ccccc2)C2CCCC2)C1 (stereo not drawn)
inactive: SF-295 CNS > 100 µM | HOP-62 NSCLC > 100 µM | SK-MEL-2 melanoma > 100 µM | HCT-116 colon > 100 µM | NCI-H460 lung > 100 µM | MDA-MB-231 breast > 100 µM | OVCAR-3 ovarian > 100 µM | MOLT-4 leukemia 91.4 µM | HL-60(TB) leukemia > 100 µM | SF-539 CNS > 100 µM | CCRF-CEM leukemia > 100 µM | MALME-3M melanoma > 100 µM | UACC-257 melanoma > 100 µM | BT-549 breast > 100 µM | MDA-MB-435 = > 100 µM | UACC-62 melanoma > 100 µM | SN12C renal > 100 µM | SK-MEL-5 melanoma > 100 µM | SF-268 CNS > 100 µM | SR leukemia > 100 µM | TK-10 renal > 100 µM | T-47D breast > 100 µM | SK-OV-3 ovarian > 100 µM | IGROV1 ovarian > 100 µM | LOX IMVI melanoma > 100 µM | CAKI-1 renal > 100 µM | RXF 393 renal > 100 µM | 786-0 renal > 100 µM | EKVX NSCLC > 100 µM | DU-145 prostate > 100 µM | MCF7 breast > 100 µM | COLO 205 colon > 100 µM | OVCAR-4 ovarian > 100 µM | MDA-N > 100 µM | NCI-H522 lung > 100 µM | U251 CNS > 100 µM | M14 melanoma > 100 µM | RPMI-8226 leukemia > 100 µM | ACHN renal > 100 µM | NCI/ADR-RES ovarian > 100 µM | K-562 leukemia > 100 µM | HT29 colon > 100 µM | SW-620 colon > 100 µM | HCT-15 colon > 100 µM | OVCAR-5 ovarian > 100 µM | A549 NSCLC > 100 µM | NCI-H226 lung > 100 µM | HS 578T breast > 100 µM | NCI-H23 lung > 100 µM | OVCAR-8 ovarian > 100 µM | SK-MEL-28 melanoma > 100 µM | A498 renal > 100 µM | SNB-75 CNS > 100 µM | PC-3 prostate > 100 µM | KM12 colon > 100 µM | SNB-19 CNS > 100 µM | NCI-H322M lung > 100 µM | HOP-92 NSCLC > 100 µM
